Patent US11292791B2 (priority 2017, dated 2022)

Biological target: BRD4 (Homo sapiens (Human), UniProt O60885)
Experiment: biochemical
Settings: BRD4 IC50 (μM gmean)

Structure (SMILES) | IC50 [µM]
COC(=O)N1c2ccc3c(nc(C(O)c4cc(F)cc(F)c4OC)n3C3CCCC(C(=O)O)C3)c2CC[C@@H]1C (some centres unmarked) [Example 537] | 0.1 to 1
COC(=O)N1c2ccc3c(nc(C(O)CC4CCCC4)n3C3CCCC(C(=O)O)C3)c2CC[C@@H]1C (some centres unmarked) [Example 454] | 0.1 to 1
COC(=O)N1c2ccc3c(nc(C4(N(C)c5ccccn5)CC4)n3[C@@H]3CCC[C@@H](C(=O)O)C3)c2CC[C@@H]1C [Example 652] | 0.1 to 1
COC(=O)N1c2ccc3c(nc(C4(Nc5ccccn5)CC4)n3[C@@H]3CCC[C@@H](C(=O)O)C3)c2CC[C@@H]1C [Example 422] | 0.1 to 1
COC(=O)N1c2ccc3c(nc(Cc4ccccc4)n3[C@@H]3CC[C@H](C(=O)O)C(C)(C)C3)c2CC[C@@H]1C [Example 49, (1S,4R)-4-[(7S)-2-benzyl-6-(methoxycarbonyl)-7-methyl-3H,6H,7H,8H,9H-imidazo[4,5-f]quinolin-3-yl]-2,2-dimethylcyclohexane-1-carboxylic Acid] | 1 to 1000
COC(=O)N1c2ccc3c(nc(Cc4cc(F)cc(OC)c4)n3[C@H]3CC[C@H](C(=O)O)CC3)c2CC[C@@H]1C [Example 595] | 0.1 to 1
COC(=O)N1c2ccc3c(nc(Nc4cccc(C#N)c4)n3[C@H]3CC[C@H](C(=O)O)CC3)c2CC[C@@H]1C [Example 884] | 0.1 to 1
COC(=O)N1c2ccc3c(nc(C(O)c4ccc5c(c4)CCO5)n3C3CCCC(C(=O)O)C3)c2CC[C@@H]1C (some centres unmarked) [Example 419] | 0.1 to 1
COC(=O)N1c2ccc3c(nc(Cc4ccccc4)n3[C@@H]3CC[C@@H](C(N)=O)OC3)c2CC[C@@H]1C [Example 73, methyl (S)-2-benzyl-3-((3R,6S)-6-carbamoyltetrahydro-2H-pyran-3-yl)-7-methyl-3,7,8,9-tetrahydro-6H-imidazo[4,5-f]quinoline-6-carboxylate] | 1 to 1000
COC(=O)N1c2ccc3c(nc(C(O)c4cc(F)c5c(c4)CCO5)n3C3CCCC(C(=O)O)C3)c2CC[C@@H]1C (some centres unmarked) [Example 427] | 0.1 to 1
COC(=O)N1c2ccc3c(nc(C(C)Oc4ccccc4)n3C3CCCC(C(=O)O)C3)c2CC[C@@H]1C (some centres unmarked) [Example 496] | 0.1 to 1
COC(=O)N1c2ccc3c(nc(C(O)C4CCCCCC4)n3C3CCCC(C(=O)O)C3)c2CC[C@@H]1C (some centres unmarked) [Example 491] | 0.1 to 1
COC(=O)N1c2ccc3c(nc([C@H](C)Cc4ccccc4)n3[C@H]3CC[C@H](C(=O)O)CC3)c2CC[C@@H]1C [Example 60, trans-4-[(7S)-6-(methoxycarbonyl)-7-methyl-2-[(2R)-1-phenylpropan-2-yl]-3H,6H,7H,8H,9H-imidazo[4,5-f]quinolin-3-yl]cyclohexane-1-carboxylic acid] | 1 to 1000
COC(=O)N1c2ccc3c(nc(C4(n5cc6ccccc6n5)CC4)n3[C@H]3CC[C@H](C(=O)O)CC3)c2CC[C@@H]1C [Example 487] | 0.1 to 1
COC(=O)N1c2ccc3c(nc([C@H](O)c4ccc(Cl)cc4)n3[C@@H]3CCC[C@@H](C(=O)O)C3)c2CC[C@@H]1C [Example 413, (1R,3R)-3-[(7S)-2-[(R)-(4-chlorophenyl)(hydroxy)methyl]-6-(methoxycarbonyl)-7-methyl-3H,6H,7H,8H,9H-imidazo[4,5-f]quinolin-3-yl]cyclohexane-1-carboxylic Acid] | 0.1 to 1
COC(=O)N1c2ccc3c(nc(C4(n5ncc6ccccc65)CC4)n3[C@H]3CC[C@H](C(=O)O)CC3)c2CC[C@@H]1C [Example 450] | 0.1 to 1
COC(=O)N1c2ccc3c(nc(CN4Cc5ccccc5CC4=O)n3[C@@H]3CCC[C@@H](C(=O)O)C3)c2CC[C@@H]1C [Example 684] | 0.1 to 1
COC(=O)N1c2ccc3c(nc([C@@H](C)OC4CCOCC4)n3[C@@H]3CCC[C@@H](C(=O)O)C3)c2CC[C@@H]1C [Example 557] | 0.1 to 1
COC(=O)N1c2ccc3c(nc(Cn4ccccc4=O)n3[C@@H]3CCC[C@H](O)C3)c2CC[C@@H]1C [Example 68] | 0.1 to 1
COC(=O)N1c2ccc3c(nc(Nc4cccc(C)c4)n3[C@@H]3CCC[C@@H](C(=O)O)C3)c2CC[C@@H]1C [Example 847] | 0.1 to 1
